{"source": "paper PMC10012886", "about": "(mAbs, 2023)", "binders": {"B1": {"name": "fusion protein of human Fc with human PD-1 extracellular domain (PD1-hFc) (Fc fusion)", "chain": "LDSPDRPWNPPTFSPALLVVTEGDNATFTCSFSNTSESFVLNWYRMSPSNQTDKLAAFPEDRSQPGQDCRFRVTQLPNGRDFHMSVVRARRNDSGTYLCGAISLAPKAQIKESLRAELRVTERRAEVPTAHPSPSPRPAGQFQTLV"}}, "biological_target": "T1, histidine-tagged human PDL-2 extracellular domain (PDL2-His) (human, UniProt Q9BQ51 20-220)", "T1 sequence": "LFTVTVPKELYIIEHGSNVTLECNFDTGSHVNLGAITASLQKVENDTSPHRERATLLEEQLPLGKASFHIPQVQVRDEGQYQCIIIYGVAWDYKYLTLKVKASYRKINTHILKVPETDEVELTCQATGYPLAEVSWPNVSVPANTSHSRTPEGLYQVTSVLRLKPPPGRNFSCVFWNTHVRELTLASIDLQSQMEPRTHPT", "assay": "ELISA"}
{"binder": "B1", "values": [{"measurement": "binding result", "result": "binds"}]}
